Sequences of proteins named here, by UniProt entry; tags and fusion partners are left off.
UniProt P11712, whole entry: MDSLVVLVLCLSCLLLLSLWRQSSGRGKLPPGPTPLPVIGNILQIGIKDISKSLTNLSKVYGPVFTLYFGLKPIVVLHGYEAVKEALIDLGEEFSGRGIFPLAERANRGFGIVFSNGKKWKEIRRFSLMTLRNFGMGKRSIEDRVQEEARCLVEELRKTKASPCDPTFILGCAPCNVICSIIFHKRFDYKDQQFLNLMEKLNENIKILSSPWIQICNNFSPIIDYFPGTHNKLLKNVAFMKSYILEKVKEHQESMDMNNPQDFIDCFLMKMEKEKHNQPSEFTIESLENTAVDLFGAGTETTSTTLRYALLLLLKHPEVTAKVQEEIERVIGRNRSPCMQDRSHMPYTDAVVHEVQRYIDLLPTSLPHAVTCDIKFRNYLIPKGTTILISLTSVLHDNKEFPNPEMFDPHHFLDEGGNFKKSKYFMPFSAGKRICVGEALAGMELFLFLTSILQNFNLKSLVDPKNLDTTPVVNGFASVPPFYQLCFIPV
UniProt P33261, whole entry: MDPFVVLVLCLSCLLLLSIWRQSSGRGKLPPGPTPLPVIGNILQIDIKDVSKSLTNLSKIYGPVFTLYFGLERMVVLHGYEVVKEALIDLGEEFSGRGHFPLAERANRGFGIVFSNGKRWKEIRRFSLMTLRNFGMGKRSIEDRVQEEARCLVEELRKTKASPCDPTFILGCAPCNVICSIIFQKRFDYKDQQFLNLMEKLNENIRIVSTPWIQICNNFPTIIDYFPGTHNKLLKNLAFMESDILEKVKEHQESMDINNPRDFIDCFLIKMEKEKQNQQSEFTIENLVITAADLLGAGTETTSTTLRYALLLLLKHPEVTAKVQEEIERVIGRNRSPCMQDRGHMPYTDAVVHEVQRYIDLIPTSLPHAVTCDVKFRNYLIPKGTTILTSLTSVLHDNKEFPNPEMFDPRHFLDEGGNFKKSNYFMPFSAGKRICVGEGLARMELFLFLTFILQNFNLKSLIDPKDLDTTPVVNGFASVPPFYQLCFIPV

According to ChEMBL document CHEMBL2203264, “Optimization of imidazo[4,5-b]pyridine-based kinase inhibitors: identification of a dual FLT3/Aurora kinase inhibitor as an orally bioavailable preclinical development candidate for the treatment of acute myeloid leukemia” (J Med Chem, 2012):

Assays:
[1] = tested on: SW-620; assay: cells; conditions: Homo sapiens, SW-620, 72 h
[2] = target: Cytochrome P450 2C9 (Homo sapiens, UniProt P11712); assay: Inhibition of human liver microsome CYP2C9 by LC-MS-MS analysis; format: ADME
[3] = target: Cytochrome P450 2C19 (Homo sapiens, UniProt P33261)
[4] = Growth inhibition of human MOLM11 cells; format: functional

Structure (SMILES) | GI50 [1] [nM] | IC50 [2] [nM] | IC50 [3] [nM] | GI50 [4] [nM]
Cc1cc(CN2CCN(c3c(Cl)cnc4[nH]c(-c5cn(C)nc5C5CC5)nc34)CC2)no1 | 1350 |  |  | 
Cc1nn(C)cc1-c1nc2c(N3CCN(Cc4ccc(Cl)cc4)CC3)c(Cl)cnc2[nH]1 [MOBINITINIB] |  | > 10000 | > 10000 | 291
